In US20130333715A1, “SHAMPOO COMPOSITIONS AND METHODS OF MAKING SAME” (The Procter & Gamble Company, priority 2012, published 2013):

Experiments:
[1] = Calculated conditional stability constants for chelants with Cu^+2 at specified pH; type: physicochemical
Source text: (§1) However, as the pH range of the present compositions are acidic (i.e., less than 7), the log alpha value (αm) is considered to be constant and approximately negligible.
(§2) The calculated stability constants for a range of chelants with Fe^+3, Cu^+2, and Ca^+2 are given below in Table 3: […]

[2] = 1:1 complex, fully deprotonated chelant, 25° C., 0.1M ionic strength; cited from earlier work
[3] = Calculated conditional stability constants for chelants with Fe^+3 at specified pH
Source text: The gradual change in ligand species as pH changes can be represented using alpha (α) coefficients, defined as: [formula] […] By combining stability (K) and alpha (α) constants at a given pH, the formula below provides the effective chelating power of a chelant.

[4] = Calculated conditional stability constants for chelants with Ca^+2 at specified pH; type: physicochemical
Source text: as §1, §2

**Q.** For “ethylenediamine-N,N′-bis(2-hydroxyphenylacetic acid) [EDDHA (EHPG)]”, which “log Conditional Stability Constant (@ pH) Cu^+2” value ([1]; pH 2) is on record?
**A.** −3.10

**Q.** What about the “log Conditional Stability Constant (@ pH) Cu^+2” value ([1]; pH 3) of the same substance?
**A.** 0.90

**Q.** What about the “log Conditional Stability Constant (@ pH) Cu^+2” value ([1]; pH 4) of the same substance?
**A.** 4.90

**Q.** What about the “log Conditional Stability Constant (@ pH) Cu^+2” value ([1]; pH 5) of the same substance?
**A.** 8.88

**Q.** What about the “log Conditional Stability Constant (@ pH) Cu^+2” value ([1]; pH 6) of the same substance?
**A.** 12.72

**Q.** What about the “log Conditional Stability Constant (@ pH) Cu^+2” value ([1]; pH 7) of the same substance?
**A.** 16.11

**Q.** What about the “log Conditional Stability Constant (@ pH) Cu^+2” value ([1]; pH 8) of the same substance?
**A.** 19.07

**Q.** And the “log K Fe” value [2]?
**A.** 35.5

**Q.** What about the “log Conditional Stability Constant (@ pH) Fe^+3” value ([3]; pH 2) of the same substance?
**A.** 7.10

**Q.** And the “log Conditional Stability Constant (@ pH) Fe^+3” value ([3]; pH 3)?
**A.** 11.10

**Q.** And the “log Conditional Stability Constant (@ pH) Fe^+3” value ([3]; pH 4)?
**A.** 15.10

**Q.** And the “log Conditional Stability Constant (@ pH) Fe^+3” value ([3]; pH 5)?
**A.** 19.08

**Q.** And the “log Conditional Stability Constant (@ pH) Fe^+3” value ([3]; pH 6)?
**A.** 22.92

**Q.** And the “log Conditional Stability Constant (@ pH) Fe^+3” value ([3]; pH 7)?
**A.** 26.31

**Q.** What about the “log Conditional Stability Constant (@ pH) Fe^+3” value ([3]; pH 8) of the same substance?
**A.** 29.27

**Q.** What about the “log Conditional Stability Constant (@ pH) Ca^+2” value ([4]; pH 2) of the same substance?
**A.** −21.20

**Q.** And the “log Conditional Stability Constant (@ pH) Ca^+2” value ([4]; pH 3)?
**A.** −17.20

**Q.** What about the “log Conditional Stability Constant (@ pH) Ca^+2” value ([4]; pH 4) of the same substance?
**A.** −13.20

**Q.** What about the “log Conditional Stability Constant (@ pH) Ca^+2” value ([4]; pH 5) of the same substance?
**A.** −9.22

**Q.** And the “log Conditional Stability Constant (@ pH) Ca^+2” value ([4]; pH 6)?
**A.** −5.38

**Q.** What about the “log Conditional Stability Constant (@ pH) Ca^+2” value ([4]; pH 7) of the same substance?
**A.** −1.99

**Q.** What about the “log Conditional Stability Constant (@ pH) Ca^+2” value ([4]; pH 8) of the same substance?
**A.** 0.97
